# Antibody variant affinities, Ab-14 heavy chain, assay 1

All variants were tested on one target, the spike HR2 peptide PDVDLGDISGINAS (SARS-CoV-2).

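Variants in AAYL49 differ from the parent at up to three CDR positions; double and triple changes were sampled at random. AlphaSeq pools MATa yeast showing the antibodies with MATalpha yeast showing the peptide. The frequency of each diploid, read from paired DNA barcodes, reflects how well the two displayed proteins bind. A regression on co-assayed BCL2-family reference pairs converts the normalised counts of each replicate to an apparent Kd. Each pool was mated in three replicate cultures.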

Parent: Ab-14, a human scFv built as VH, a (GGGGS)3 linker, VL. Only the CDRs of the heavy chain vary.
VH: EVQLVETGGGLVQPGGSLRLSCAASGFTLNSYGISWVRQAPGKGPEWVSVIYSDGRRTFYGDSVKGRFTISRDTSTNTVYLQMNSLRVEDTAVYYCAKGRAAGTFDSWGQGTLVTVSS
VL: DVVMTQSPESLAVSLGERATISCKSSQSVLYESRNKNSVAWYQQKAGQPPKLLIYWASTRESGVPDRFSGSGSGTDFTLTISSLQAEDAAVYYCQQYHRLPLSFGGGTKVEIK

The parent's heavy chain CDRs are GFTLNSYGIS, VIYSDGRRTFYGDSVK, GRAAGTFDS; each variant's own CDRs replace them letter for letter.
Values are log10 of the apparent Kd in nM; lower means stronger binding.
A mean of the replicates is given; it leaves out those without a signal.
Where no diploid with the target was found in any replicate, the entry reads "nd": below detection, most likely a poor binder, though not proof of it.

| # | CDR-H1 | CDR-H2 | CDR-H3 | mean, log10 nM | detected |
|---|---|---|---|---|---|
| 1 | GFTLNSYGIA | VIYSDGRRTFYGDKVK | GRAAGTFDS | nd | 0 of 3 |
| 2 | PFTLNSYGIS | VIYSDGRRTFYINSVK | GRAAGTFDS | 1.94 | 3 of 3 |
| 3 | TFTLNSYGIS | VIYSDGRGTFYGDSVK | GRAAGTFDQ | nd | 0 of 3 |
| 4 | KFDLNSYGIS | VIYSDGRRTFYGDSVK | GRYAGTFDS | 0.66 | 3 of 3 |
| 5 | GFTLQSYGIS | VIYSDGRRTFYGDSVK | GRNAGTFDS | 0.74 | 3 of 3 |
| 6 | GFTLNSYGIS | VIYSPNRRTFYGDSVK | SRAAGTFDS | 3.09 | 1 of 3 |
| 7 | GFTTTSYGIS | VIYSDGRRTMYGDSVK | GRAAGTFDS | 2.20 | 3 of 3 |
| 8 | GFTLNSYGIC | VIYSDGTRTFYGDSVK | GRPAGTFDS | 3.32 | 1 of 3 |
| 9 | GFTLNSEGIS | VIYSDGRRTFYGWSVK | GRAAGTKDS | 3.95 | 2 of 3 |
| 10 | GFTLESYGIS | VIYADGRRTFYGDSVK | GGAAGTFDS | 0.03 | 3 of 3 |
| 11 | GFTLNSYGIS | VIYEDGRRTFYGDSDK | GRAAGTFDA | 4.37 | 2 of 3 |
| 12 | GFTLNSYGIS | HIYSDGRITFYLDSVK | GRAAGTFDS | nd | 0 of 3 |
| 13 | GYTLNSYGIS | KIKSDGRRTFYGDSVK | GRAAGTFDS | nd | 0 of 3 |
| 14 | GFTLASYGIS | IIYSDGRRTFYGDSVK | GRAAGTFDS | 2.23 | 3 of 3 |
| 15 | LFTLNSYGIS | VIYSDGRRTSYGDSVF | GRAAGTFDS | nd | 0 of 3 |
| 16 | GFTLNSYGIS | VIKSDGRHTIYGDSVK | GRAAGTFDS | 3.20 | 1 of 3 |
| 17 | GFTLNCYGIS | VIYSDGRRTFYGFSVK | GMAAGTFDS | nd | 0 of 3 |
| 18 | GFTLNSTGIS | VIYSDGSRTFYGDSVK | GRLAGTFDS | nd | 0 of 3 |
| 19 | GFTLNSYGIS | VIYSDGRRTFYQDSVK | GRAAGSFDS | 2.14 | 3 of 3 |
| 20 | GGTLNSYGIS | VIYSDGRRTFYGESVK | GRAAGAFDS | nd | 0 of 3 |
| 21 | GFTVNSYGIS | VIYSDGRRTFYGKSVK | GRAAGTFDC | nd | 0 of 3 |
| 22 | GFTLNSYGSS | VIYSDGRRTRYVDSVK | GRAAGTFDS | nd | 0 of 3 |
| 23 | GFTLNQYGIS | VIYSDGRRTFYGDSVK | GRAPGTFDG | nd | 0 of 3 |
| 24 | GFTLNSYGIS | VIYSDGRRTFCGDSVV | GRAAGRFDS | nd | 0 of 3 |
| 25 | GFTLNSYGIE | VIYSDGRRTFYGDPVG | GRAAGTFDS | 5.26 | 2 of 3 |
| 26 | GFTLNSYGIS | CIYSDGRRTFYGDSVK | GRPPGTFDS | 3.20 | 2 of 3 |
| 27 | GFKLNSPGIS | VIYSDLRRTFYGDSVK | GRAAGTFDS | nd | 0 of 3 |
| 28 | GFTLFSYGIS | VIYSDGRRTFYGDSVY | KRAAGTFDS | 2.73 | 3 of 3 |
| 29 | PFTLNPYGIS | VIYSDGRRTFYGDSVK | GRAAGKFDS | 6.00 | 1 of 3 |
| 30 | GFTLNSYGIS | VIYNDGRRTFYGDSVK | GEAAFTFDS | nd | 0 of 3 |
| 31 | GFTLNSYGIS | VIYSSGYCTFYGDSVK | GRAAGTFDS | nd | 0 of 3 |
| 32 | GFTHNSYGIS | VIYEDGRRTFWGDSVK | GRAAGTFDS | nd | 0 of 3 |
| 33 | GFTLNSYVIS | VIYSDGRTTFYGDSVW | GRAAGTFDS | nd | 0 of 3 |
| 34 | GFTLWSYGIS | VTVSDGRRTFYGDSVK | GRAAGTFDS | 2.98 | 1 of 3 |
| 35 | GFTLNSYGIS | IIMSDGRRTFYGDSVK | GRAAGTFDS | 4.72 | 2 of 3 |
| 36 | GFWLNSYGIS | VIYSDGTRTFYGDSVK | GRAAGTFDS | 3.10 | 1 of 3 |
| 37 | GFTLNSYTIS | VIYSDGRRTFYGDSVK | GRAWGTFDM | nd | 0 of 3 |
| 38 | GFTLNSYGIN | VIYSDGPRTAYGDSVK | GRAAGTFDS | nd | 0 of 3 |
| 39 | GFTLNSYGIS | VIYSDGRRTFYYDSVK | GRSAGTFDS | nd | 0 of 3 |
| 40 | GFTLNSYGIS | VIYSDGRVTFYGDPVK | GRAAGTFDN | nd | 0 of 3 |
| 41 | WFTLNKYGIS | VIYSDGRHTFYGDSVK | GRAAGTFDS | 3.59 | 1 of 3 |
| 42 | GFTLNSYKIS | VIYSDGRRTFYGDSVI | GLAAGTFDS | 4.62 | 3 of 3 |
| 43 | GFTLNCYGIS | VCYSDGRRRFYGDSVK | GRAAGTFDS | nd | 0 of 3 |
| 44 | GFTLNSYGIS | VTYSDGRRTFYGDSVK | IRAAKTFDS | 4.71 | 1 of 3 |
| 45 | GSTLNSYWIS | VIYSDGRRTFYGDSVK | GRYAGTFDS | nd | 0 of 3 |
| 46 | GFTLNSYGIS | VIYSDGRRTFYGDSYP | GRAAGTFDC | nd | 0 of 3 |
| 47 | GFTTNSYGIQ | VIYSDGRRNFYGDSVK | GRAAGTFDS | nd | 0 of 3 |
| 48 | GFTLNSYGIS | VAYSDGRRTFYWDSVK | GRAAGDFDS | 4.01 | 2 of 3 |
| 49 | GFTLNSYGIS | VIYSDGRRYFYGDSDK | GRAAGTFDS | 4.94 | 1 of 3 |
| 50 | PFTLNSYGIS | VIYSDGRRTFYMDSVK | GRAAGTADS | nd | 0 of 3 |
| 51 | GFTLNSYMIS | VIYSRGRRTFYGGSVK | GRAAGTFDS | 3.37 | 1 of 3 |
| 52 | GFTLNSYGIS | VIYSDGRRTDYGDYVK | GAAAGTFDS | nd | 0 of 3 |
| 53 | GFTLNSYGIS | FIYSDGVRAFYGDSVK | GRAAGTFDS | nd | 0 of 3 |
| 54 | GFTLNSYGNS | VIYSDGRRTAYGDSVK | ARAAGTFDS | nd | 0 of 3 |
| 55 | GFTLNSYCIS | VIYSDGRRTFYGDSKK | GCAAGTFDS | nd | 0 of 3 |
| 56 | GFTLNSAGIS | VIYSMNRRTFYGDSVK | GRAAGTFDS | 5.38 | 1 of 3 |
| 57 | GFDLNSYGIS | VIYSDGRRTFYGDSKK | SRAAGTFDS | nd | 0 of 3 |
| 58 | GFELNSYGIS | VIYSDKRRTFYGDSVK | GRAAGTIDS | nd | 0 of 3 |
| 59 | GFTLNSYGIS | VIYSDGRRTFYGDSKK | GRAAGTFAD | 3.93 | 2 of 3 |
| 60 | GFTLDSYSIS | VIYSDGRRTFYGDSVK | GRACGTFDS | nd | 0 of 3 |
| 61 | GFTLNSLGIS | VLYSDGRRTFYGDSVK | GRAAGTFWS | nd | 0 of 3 |
| 62 | GFTLNSYGIS | VIYSDGRRTFYGDKVK | GRAASTFDD | nd | 0 of 3 |
| 63 | GFTLNSYGIS | VIYGDGRRTFYGDSVT | GRAAGTFDS | 4.29 | 1 of 3 |
| 64 | EFTLNCYGIS | VIYSDGRRTFYGDSVK | GRALGTFDS | nd | 0 of 3 |
| 65 | GFTLNSYGIS | VCYSDGHRTFYGDSVT | GRAAGTFDS | 4.07 | 2 of 3 |
| 66 | GFTLNSYGIS | VYYSDGRRTFYEDSVK | GRAAGEFDS | 4.22 | 1 of 3 |
| 67 | GQTLNSYGSS | VIYSDGRRTFYGDSVK | TRAAGTFDS | nd | 0 of 3 |
| 68 | GFPLNSYGIS | VIYSDGYRTFYGDSVK | GRAAGTFDL | 5.05 | 1 of 3 |

8 of these entries, quoted again:

| CDR-H1 | CDR-H2 | CDR-H3 | mean, log10 nM | detected |
|---|---|---|---|---|
| GFKLNSPGIS | VIYSDLRRTFYGDSVK | GRAAGTFDS | nd | 0 of 3 |
| GYTLNSYGIS | KIKSDGRRTFYGDSVK | GRAAGTFDS | nd | 0 of 3 |
| GFTLNSLGIS | VLYSDGRRTFYGDSVK | GRAAGTFWS | nd | 0 of 3 |
| PFTLNSYGIS | VIYSDGRRTFYMDSVK | GRAAGTADS | nd | 0 of 3 |
| GFTLNSYGIS | FIYSDGVRAFYGDSVK | GRAAGTFDS | nd | 0 of 3 |
| GFTLQSYGIS | VIYSDGRRTFYGDSVK | GRNAGTFDS | 0.74 | 3 of 3 |
| GFTLNSYGIS | VIYSDGRVTFYGDPVK | GRAAGTFDN | nd | 0 of 3 |
| GFTLNSYGIN | VIYSDGPRTAYGDSVK | GRAAGTFDS | nd | 0 of 3 |

Parent in this assay: reference entry 0.65, copy in this library 4.11 (one replicate of three).
Empty control strains, which show no peptide, gave a signal in 15% of pairings with library AAYL49; the median was 4.06 and 95% of these signals were weaker than 2.83. No background was subtracted.

Values reported by Engelhart et al. 2022, doi:10.1038/s41597-022-01779-4 (FLAb copy).